From patent US20080052790A1
Only a part of the results on these compounds is given; other tests are left out.

System: Arabidopsis and tobacco plants
Assay: Homologous recombination frequency with GUS/LUC recombination reporter constructs
Settings: in vivo

With ammonium nitrate the “effect on homologous recombination frequency” value was “largest increase in homologous recombination frequency”.
